The nature of the data set: Rectal circulation: Cephalothin disappeared by absorption (Examples 10-14, 16-18). The following applies: for Cephalothin disappeared by absorption, Osmotic pressure (%) X 4 / Cephalothin disappeared by absorption, Osmotic pressure (%) X 1: promoter 0.1% W/V, 0.1% W/V Cephalothin.Na. The procedure: The experiments were conducted similarly as in Example 1. […] Each sample was diluted and the quantity of Cephalothin disappeared was determined by UV-spectrophotometer of high-speed liquid chromatography.

Where [1] appears, read: Table 4, four-fold tonic, after one hour.
[2] abbreviates: Table 4, isotonic, after one hour.

Turning to `NC(C(=O)O)c1ccccc1` (racemic) [DL-phenylglycine], under “rat, in vivo”, the “Cephalothin disappeared by absorption, Osmotic pressure X 1” value is reported as 11.5 percents and the “Cephalothin disappeared by absorption, Osmotic pressure X 2” value turned out to be 19.8 percents.

In the case of `CCOC(=O)CC(C)=O` [Ethylacetoacetate], the “Cephalothin disappeared by absorption, Osmotic pressure X 4” value (Table 10, diketo-compounds, Example 10 repeated, four-fold tonic) is on record as 26.7 percents. The “Cephalothin disappeared by absorption, Osmotic pressure X 1” value (Table 10, diketo-compounds, Example 10 repeated, isotonic) was found to be 14.6 percents. Also, where the note is “Table 10, diketo-compounds, Example 10 repeated, two-fold tonic”, the “Cephalothin disappeared by absorption, Osmotic pressure X 2” value is reported as 20.2 percents.

Take `O=C(O)CC(=O)O` [Malonic acid, malonic acid]: the “Cephalothin disappeared by absorption, Osmotic pressure (%) X 4” value under setting [1] is recorded as 13.0%. Moreover, under setting [2], the “Cephalothin disappeared by absorption, Osmotic pressure (%) X 1” value (from here on “Cephalothin disappeared … (%) X 1”) is reported as 4.5%.

With `O=C(O)CN(CC(=O)O)CC(=O)O` [Nitrilotriacetic acid, nitrilotriacetic acid], the “Cephalothin disappeared by absorption, Osmotic pressure (%) X 4” value under setting [1] is recorded as 10.4%. Under setting [2], the “Cephalothin disappeared … (%) X 1” value amounted to 4.4%.

`O=C(O)CCC(=O)C(=O)O` [α-ketoglutaric acid]: the “Cephalothin disappeared … (%) X 1” value (Table 5, isotonic, one hour) stood at 7.1%.

The record behind these values is patent publication US4900730A, “Preparation which promotes the absorption of peptides” (priority 1981, dated 1990).
